The subject of the assay is A253 SCCHN model. Put plainly: In vivo A253 xenograft. Also noted: species or system nude mice. Particulars: single agent. The procedure: A253 cells were cultured in DMEM containing 10% heat-inactivated fetal bovine serum without antibiotics until the time of implantation. A253 cells were harvested in exponential growth. Five million cells in 200 μl PBS were subcutaneously implanted into the upper right flank of nude mice. On Day 25, tumors were measured and animals with a tumor volume of approximately 200 mm^3 were enrolled in the efficacy study. In general, a total of 9 animals per group were enrolled in efficacy studies. For single-agent and combination studies, animals were dosed intravenously via lateral tail vein injection with MOR10703 or cetuximab.

We go through one substance from patent US20210008201A1, “ANTIBODIES FOR EPIDERMAL GROWTH FACTOR RECEPTOR 3 (HER3)” (NOVARTIS AG, priority 2011, published 2021).

Turning to “cetuximab: HER1 (EGFR) inhibitor, Erbitux/Cetuximab (Imclone) [reference compound]”, the tumor growth result is listed as “tumor stasis”.
